# From PubChem BioAssay AID938 (National Center for Advancing Translational Sciences (NCATS), 2007)
# Only a part is listed here, and it is no random draw. Results filed as inconclusive are left out. A call without a number means that no potency is given here. Activity calls are given as the source filed them. Calls follow the shape of the dose curve; as a rule, active = well fitted activation curve with a large enough effect; inconclusive = small, poorly fitted or top-dose-only effect; inactive = no such curve, though single readings can be large or run the other way.
# Experiment: qHTS Assay for Agonists of the Thyroid Stimulating Hormone Receptor: Activators of Intracellular cAMP Concentrations in Parental HEK 293; also: nearly all actives have a fitted effect of over 55% in size
# Conditions: parental HEK293 CNG cAMP sensor, membrane potential fluorescence; series mostly up to 57.1 µM
# Excerpt: NIH Chemical Genomics Center [NCGC]
# NIH Molecular Libraries Screening Centers Network [MLSCN]
# PI Name: Dr. Marvin Gershengorn
# This cell based assay utilized a cyclic nucleotide gated ion channel (CNG) as a biosensor for cAMP induction. HEK 293 cells stably expressing the modified CNG were purchased from BD biosciences (http://www.atto.com/products/actone/features_benefits.shtml) . Stimulation of cAMP production causes the CNG to open and subsequent membrane depolarization to occur. A fluorescent membrane potential dye (BD biosciences) was utilized to detect cAMP stimulation in cells.
# The cells were maintained in DMEM medium (Invitrogen) containing 10 % FBS (Hyclone), 100 units/ml Penicillin, 100 ug/ml Streptomycin (Invitrogen), and 250 ug/ml Geneticin (Invitrogen) and 1 ug/ml Puromycin (Invitrogen) at 37C in 5% CO2. This assay was used as a counterscreen to "qHTS Assay for Agonists of the Thyroid Stimulating Hormone Receptor", to control for compounds signaling through endogenous receptors and other targets of HEK 293 cells.
# NCGC Assay Protocol Summary:
# High Throughput Screening. Freshly passaged cells were dispensed into 1536-well assay plates at 4 ul/well in DMEM containing phenol red (Invitrogen), 10% FCS (Hyclone), and 100 units/ml Penicillin, 100 ug/ml Streptomycin (Invitrogen) and incubated at 37 C with 5% CO2 for 20 to 36 hrs before the robotic screening. The screen was initiated by addition of 4 ul/well membrane potential dye containing 100 uM RO 20-1724 (Sigma Aldrich), followed by 60 min incubation at room temperature to allow for dye equilibration across the cell membrane. 23 nl/well compound or control was then added to the assay plates, which were incubated for additional 30 min before reading a Envision fluorescence plate reader (Perkin Elmer) in bottom-read mode for fluorescence intensity (emission at 590 nm).
# Keywords: cAMP, CNG Ion Channel, quantitative high throughput screening, qHTS, HTS, probe identification, CNG, cAMP, cyclic nucleotide gated ion channel PubChem
# Potency is read from the fitted curve at half-maximal effect.
row,SMILES,Potency
1,CCn1nc(C(=O)O)c(=O)c2cc3c(cc21)OCO3,inactive
2,CC(=O)O[C@H]1C[C@@]2(C)[C@H](C[C@@H](O)[C@H]3[C@@]4(C)CC[C@@H](O)[C@@H](C)[C@H]4CC[C@@]32C)C1=C(CCC=C(C)C)C(=O)O,inactive
3,COCCn1c(SCc2nc3sc(C(=O)OC)c(C)c3c(=O)[nH]2)nc2ccccc21,active: 25.1 µM
